Test results published in patent US11407736B2 (priority 2019, dated 2022).

Protein sequences, listed by entry. Tags and fused reporters are not part of them.
UniProt Q13546, whole entry, species assumed: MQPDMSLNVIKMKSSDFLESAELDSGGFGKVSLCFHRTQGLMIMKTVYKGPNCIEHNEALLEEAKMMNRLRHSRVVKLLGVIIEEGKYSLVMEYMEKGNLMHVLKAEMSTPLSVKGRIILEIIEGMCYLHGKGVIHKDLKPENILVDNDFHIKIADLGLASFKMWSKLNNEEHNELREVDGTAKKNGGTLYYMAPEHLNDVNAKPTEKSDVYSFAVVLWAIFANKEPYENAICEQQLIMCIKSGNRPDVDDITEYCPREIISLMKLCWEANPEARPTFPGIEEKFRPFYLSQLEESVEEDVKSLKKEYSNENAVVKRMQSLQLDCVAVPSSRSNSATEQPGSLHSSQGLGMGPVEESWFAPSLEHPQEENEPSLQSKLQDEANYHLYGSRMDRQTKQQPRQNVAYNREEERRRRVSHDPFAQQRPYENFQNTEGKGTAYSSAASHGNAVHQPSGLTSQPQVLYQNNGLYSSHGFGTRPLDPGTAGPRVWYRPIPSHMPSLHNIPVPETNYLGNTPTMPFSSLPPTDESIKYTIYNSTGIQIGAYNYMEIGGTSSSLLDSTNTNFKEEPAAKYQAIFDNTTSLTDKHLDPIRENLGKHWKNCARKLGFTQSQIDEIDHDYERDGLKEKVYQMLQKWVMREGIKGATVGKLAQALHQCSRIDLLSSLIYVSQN

Target: RIPK1 (Homo sapiens (Human), UniProt Q13546)
Assay: RIPK1 ADP-Glo biochemical kinase assay
Protocol: The final reaction volume was 5.0ul.
Adding 5 μl of ADP-Glo™ terminated the reaction.

CN1C(=O)[C@@H](NC(=O)c2cc(Oc3ccccc3)ccn2)COc2ccc(C#CC3(F)CNC3)cc21 [Compound I-143]
IC50: 27.9 nM
